This passage reports IC50 results from ChEMBL document CHEMBL1144028, “Novel 2,3-dihydro-1,4-benzoxazines as potent and orally bioavailable inhibitors of tumor-driven angiogenesis” (J Med Chem, 2008).

Protein sequences, listed by entry. Tags and fused reporters are not part of them. Lines headed by an entry give the natural chain unless they say otherwise; changes in a name come on top.
UniProt P35968, whole entry: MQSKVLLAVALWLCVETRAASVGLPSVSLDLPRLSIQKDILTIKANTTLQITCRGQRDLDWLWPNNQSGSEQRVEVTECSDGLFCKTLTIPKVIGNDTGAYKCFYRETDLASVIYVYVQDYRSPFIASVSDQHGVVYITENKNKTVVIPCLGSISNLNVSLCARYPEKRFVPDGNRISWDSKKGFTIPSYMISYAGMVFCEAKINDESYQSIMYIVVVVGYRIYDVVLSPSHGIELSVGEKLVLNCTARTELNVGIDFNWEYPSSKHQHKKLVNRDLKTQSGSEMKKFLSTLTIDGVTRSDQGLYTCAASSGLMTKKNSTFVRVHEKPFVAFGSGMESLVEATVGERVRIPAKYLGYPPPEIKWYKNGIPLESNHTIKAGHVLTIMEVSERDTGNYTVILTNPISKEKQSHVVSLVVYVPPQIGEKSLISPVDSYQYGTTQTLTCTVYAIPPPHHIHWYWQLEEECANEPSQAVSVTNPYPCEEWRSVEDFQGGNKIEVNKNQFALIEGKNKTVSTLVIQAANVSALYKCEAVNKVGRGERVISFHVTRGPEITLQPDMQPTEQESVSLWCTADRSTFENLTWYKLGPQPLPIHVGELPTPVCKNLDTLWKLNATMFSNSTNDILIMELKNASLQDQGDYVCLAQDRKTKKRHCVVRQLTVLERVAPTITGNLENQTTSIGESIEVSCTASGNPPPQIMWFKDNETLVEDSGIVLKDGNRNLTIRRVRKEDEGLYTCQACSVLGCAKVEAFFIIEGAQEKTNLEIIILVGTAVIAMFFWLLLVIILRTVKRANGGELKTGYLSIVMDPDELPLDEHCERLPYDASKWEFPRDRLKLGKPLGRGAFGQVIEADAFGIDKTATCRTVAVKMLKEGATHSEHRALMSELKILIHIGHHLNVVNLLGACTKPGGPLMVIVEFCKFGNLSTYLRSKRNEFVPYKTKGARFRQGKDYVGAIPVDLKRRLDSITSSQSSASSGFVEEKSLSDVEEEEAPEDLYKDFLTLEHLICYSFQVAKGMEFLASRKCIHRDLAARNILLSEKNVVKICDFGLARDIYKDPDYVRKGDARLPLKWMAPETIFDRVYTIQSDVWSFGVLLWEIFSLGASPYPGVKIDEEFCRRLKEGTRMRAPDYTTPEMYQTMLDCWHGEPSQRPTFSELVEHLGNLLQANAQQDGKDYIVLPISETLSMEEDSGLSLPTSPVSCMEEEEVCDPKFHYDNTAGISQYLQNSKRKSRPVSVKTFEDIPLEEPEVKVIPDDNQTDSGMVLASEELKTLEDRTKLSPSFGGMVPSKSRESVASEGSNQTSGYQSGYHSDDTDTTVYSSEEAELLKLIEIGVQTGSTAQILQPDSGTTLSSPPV
UniProt Q02763: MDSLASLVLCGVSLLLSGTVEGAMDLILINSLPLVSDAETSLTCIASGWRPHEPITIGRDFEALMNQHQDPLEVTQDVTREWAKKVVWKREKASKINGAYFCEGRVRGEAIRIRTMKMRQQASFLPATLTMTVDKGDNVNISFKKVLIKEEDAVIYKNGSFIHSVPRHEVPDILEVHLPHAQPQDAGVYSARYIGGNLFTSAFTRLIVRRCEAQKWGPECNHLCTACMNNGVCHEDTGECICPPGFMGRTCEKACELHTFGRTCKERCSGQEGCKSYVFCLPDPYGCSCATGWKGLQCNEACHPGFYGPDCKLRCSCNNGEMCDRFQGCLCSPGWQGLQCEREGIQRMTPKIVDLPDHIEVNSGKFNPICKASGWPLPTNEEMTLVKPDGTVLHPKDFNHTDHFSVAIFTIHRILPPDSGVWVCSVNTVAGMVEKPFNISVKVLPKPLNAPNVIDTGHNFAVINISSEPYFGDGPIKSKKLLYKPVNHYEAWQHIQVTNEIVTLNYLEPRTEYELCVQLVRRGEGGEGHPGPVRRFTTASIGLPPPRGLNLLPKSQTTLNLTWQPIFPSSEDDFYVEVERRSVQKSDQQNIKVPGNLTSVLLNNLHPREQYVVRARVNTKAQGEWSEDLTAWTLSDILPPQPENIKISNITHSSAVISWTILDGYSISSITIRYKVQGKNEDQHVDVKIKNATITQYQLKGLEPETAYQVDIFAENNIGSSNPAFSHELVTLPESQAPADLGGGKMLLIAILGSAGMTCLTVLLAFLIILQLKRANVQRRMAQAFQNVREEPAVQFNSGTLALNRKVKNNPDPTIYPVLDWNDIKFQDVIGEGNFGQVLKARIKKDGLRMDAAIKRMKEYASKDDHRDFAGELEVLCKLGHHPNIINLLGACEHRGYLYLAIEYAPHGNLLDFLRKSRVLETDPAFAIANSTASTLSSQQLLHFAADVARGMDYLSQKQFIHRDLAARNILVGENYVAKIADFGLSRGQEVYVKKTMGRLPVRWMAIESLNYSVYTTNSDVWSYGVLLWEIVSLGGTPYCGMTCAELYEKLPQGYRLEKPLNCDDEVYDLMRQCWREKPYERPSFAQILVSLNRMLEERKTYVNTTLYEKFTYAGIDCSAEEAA
UniProt P06239: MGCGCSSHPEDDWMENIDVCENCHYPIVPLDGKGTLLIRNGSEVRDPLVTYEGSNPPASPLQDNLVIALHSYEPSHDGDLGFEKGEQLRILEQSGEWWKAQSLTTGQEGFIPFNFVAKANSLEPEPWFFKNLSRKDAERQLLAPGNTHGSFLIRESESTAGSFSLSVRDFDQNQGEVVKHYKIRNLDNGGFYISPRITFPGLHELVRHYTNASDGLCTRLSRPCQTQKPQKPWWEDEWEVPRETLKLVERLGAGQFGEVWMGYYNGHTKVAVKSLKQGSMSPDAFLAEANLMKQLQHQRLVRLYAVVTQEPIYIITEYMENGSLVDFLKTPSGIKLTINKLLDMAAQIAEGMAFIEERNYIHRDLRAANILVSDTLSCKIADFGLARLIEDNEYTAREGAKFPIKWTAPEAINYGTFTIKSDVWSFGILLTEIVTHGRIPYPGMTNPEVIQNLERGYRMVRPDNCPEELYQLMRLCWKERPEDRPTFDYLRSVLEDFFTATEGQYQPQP

Experiment [1] concerns the target Vascular endothelial growth factor receptor 2 (Homo sapiens, UniProt P35968). Briefly: Inhibition of KDR by HTRF assay. The procedure, abridged:
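KDR read by homogeneous time-resolved fluorescence with a biotinylated gastrin substrate. IC50 is the mean of two or more separate determinations, each in duplicate.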
(Time-resolved FRET reads energy transfer from a long-lived donor to a nearby acceptor.)

Another experiment concerns the target Angiopoietin-1 receptor (Homo sapiens, UniProt Q02763). Briefly: Inhibition of Tie2.
Experiment [2] concerns the target Tyrosine-protein kinase Lck (Homo sapiens, UniProt P06239). Kind of experiment: Inhibition of Lck.

`COc1cc2nccc(Oc3ccc4c(C(=O)Nc5ccc(Cl)cc5)cccc4c3)c2cc1OC`: it took 0.03 nM to reach half-maximal inhibition in experiment [1] (IC50).
Turning to `COc1cc2nccc(Oc3ccc4c(c3)OCCN4C(=O)Nc3cccc(C)c3)c2cc1OC`, the IC50 (against Angiopoietin-1 receptor; in experiment [2]; in experiment [1]) was 1 nM in each case.

As a reminder, the IC50 is the concentration needed to halve the response being measured. A higher IC50 goes with weaker potency in that assay.
